Measured affinities in a library of Ab-95 light chain variants

The measurements come from Engelhart et al. 2022 (doi:10.1038/s41597-022-01779-4) through the FLAb antibody collection.

Target: peptide PDVDLGDISGINAS, taken from heptad repeat 2 (HR2) of SARS-CoV-2 spike.

Parent scFv Ab-95: VH joined to VL by a 15-residue (Gly4Ser)3 linker. Changes lie in the light chain CDRs alone.
VH: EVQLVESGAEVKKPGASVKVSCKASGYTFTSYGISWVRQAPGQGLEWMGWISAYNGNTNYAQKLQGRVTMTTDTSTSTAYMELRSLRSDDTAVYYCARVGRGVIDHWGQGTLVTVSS
VL: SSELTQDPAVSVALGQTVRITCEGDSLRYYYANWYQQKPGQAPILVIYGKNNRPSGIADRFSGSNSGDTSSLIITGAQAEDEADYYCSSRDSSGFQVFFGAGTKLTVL

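The starting antibody came from a phage panning campaign against this peptide. Library AAYL52 holds single substitutions and randomly drawn double and triple substitutions in the CDRs. AlphaSeq pools MATa yeast showing the antibodies with MATalpha yeast showing the peptide. The frequency of each diploid, read from paired DNA barcodes, reflects how well the two displayed proteins bind. The ratio of observed to expected reads was calibrated, replicate by replicate, on BCL2-family standards whose Kd was known from biolayer interferometry. The assay was run in three technical replicates.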

Variants are written as CDR1, CDR2 and CDR3 of the light chain (limits as in the source). Parent: EGDSLRYYYAN, GKNNRPS, SSRDSSGFQVF. This list gathers variants with a substitution at L27 (VL, numbered from residue 1). The read-out is the apparent dissociation constant on a log10 scale (nM): the lower, the stronger. Averages over replicates are reported, and they cover detected replicates only. "nd" means that the variant was in the library but no mating with the target was seen in any replicate; the authors take this as a sign of poor binding, and no number exists. Three control strains display no target. For library AAYL52, 28% of the pairings with them gave a signal, with a median of 3.91 and one signal in twenty below 2.90, so weak values seen in few replicates may be background.

With EWDSTRYYYAN / GKNNRPA / SSRDSSGFQVF the result was 3.38 (3 of 3 replicates). With EGDSIRYYYAN / YKNFRPS / SSRDSSGFQVF the result was 2.92 (1 of 3 replicates). Variant EADSYRYYYAN / GKNNRPN / SSRDSSGFQVF showed 4.96 (1 of 3 replicates). Variant EGDSARYYYAN / GKNNRPS / SSVDSSGFYVF gave nd (0 of 3 replicates). Variant EGDSMRYMYAN / GKNNRPS / SSNDSSGFQVF gave 3.56 (3 of 3 replicates). With EGDSHRYYYAK / GKNNRPS / SSPDSSGFQVF the result was 4.05 (2 of 3 replicates).

With EGDSKRYYYAN / GKFNRPY / SSRDSSGFQVF the result was 3.49 (2 of 3 replicates). With RGDSMRYYYAN / GKNNRPS / SSRDSSGFQVF the result was 2.53 (3 of 3 replicates). Variant EGDSFRYYYAN / GKNNRPS / SSRDSTGFPVF showed 3.48 (3 of 3 replicates). For NGDSYRYYYAF / GKNNRPS / SSRDSSGFQVF, the assay gave 2.48 (3 of 3 replicates). Variant EGDSQRYYYAN / GKNNRPS / SSRDSSGFQVS gave 3.56 (1 of 3 replicates). With EGDSRRYDYAN / GKNNRPS / SSRDSSGFQVF the result was 2.17 (3 of 3 replicates).

For EGDSKRYNYAN / GKNNRPS / SSRISSGFQVF, the assay gave 2.94 (3 of 3 replicates). Variant EGDSRRYYYAN / CKNNRPS / SSRNSSGFQVF gave nd (0 of 3 replicates). Variant EGDSQRYYYAN / GKNNRPS / SSCDSSPFQVF showed 3.21 (1 of 3 replicates). For EGDSVRYYYMN / GKNNRPS / SSRDSSGFNVF, the assay gave 3.55 (3 of 3 replicates). Variant EGDSKRYDYAN / GLNNRPS / SSRDSSGFQVF showed 2.41 (3 of 3 replicates). Variant EGDLSRYYYAN / GKNNRPS / SSRDSSGFQVF gave 3.73 (3 of 3 replicates).

Variant EGDSMRYNYAN / GKNNRPS / SSRDSEGFQVF gave 2.18 (3 of 3 replicates). With EGDSERYYYAN / IKNCRPS / SSRDSSGFQVF the result was 4.46 (1 of 3 replicates). Variant EGDGNRYYYAY / GKNNRPS / SSRDSSGFQVF gave 2.81 (3 of 3 replicates). Variant EGDSNRYYYAN / GENNRPS / SSRDSSGFEVF gave nd (0 of 3 replicates). For ESDSYRYYYAN / GKNNRPS / SSRVSSGFQVF, the assay gave 3.89 (1 of 3 replicates). For CGDSCRYQYAN / GKNNRPS / SSRDSSGFQVF, the assay gave 3.18 (3 of 3 replicates).

Variant EGDSERYYYAN / TKNNRPS / SSRDSSGFIVF showed 4.50 (2 of 3 replicates). Variant EGDSCRYYYAN / GKNYRPS / SSRDSSGFQKF gave 4.25 (1 of 3 replicates). Variant EGDSMRYYYAN / GKNNRPS / SSRDSSGFNVF gave 2.09 (3 of 3 replicates). Variant EGDSFRFYYAN / GKNNRPS / SSRDSSGFQVF gave 3.20 (2 of 3 replicates). For EGFSWRYYYAN / GKNNRPS / SSRDSSGFQVT, the assay gave nd (0 of 3 replicates). Variant EGDCPRYYYAN / GKNNRPF / SSRDSSGFQVF gave nd (0 of 3 replicates).

Excerpt, the final 3 entries:

{"CDR-L1": "EGDSFRFYYAN", "CDR-L2": "GKNNRPS", "CDR-L3": "SSRDSSGFQVF", "mean log10 Kd (nM)": "3.20", "detected": "2 of 3"}
{"CDR-L1": "EGFSWRYYYAN", "CDR-L2": "GKNNRPS", "CDR-L3": "SSRDSSGFQVT", "mean log10 Kd (nM)": "nd", "detected": "0 of 3"}
{"CDR-L1": "EGDCPRYYYAN", "CDR-L2": "GKNNRPF", "CDR-L3": "SSRDSSGFQVF", "mean log10 Kd (nM)": "nd", "detected": "0 of 3"}